# Assays:
# [1] = in vivo; details: C57BL/6, mouse, sc
# [2] = in vivo; details: male, cynomolgus monkey, sc, 0.03 mg/kg
compound,measurement,setting,value
CCCCCCCCCCCC(CCCCCCCCCCC(=O)O)(C(=O)O)C(=O)NCCOCCOCCC(=O)NCCCC[C@H](NC(=O)[C@H](C)NC(=O)[C@H](C)NC(=O)[C@H](CCC(N)=O)NC(=O)CNC(=O)[C@H](CCC(=O)O)NC(=O)[C@H](CC(C)C)NC(=O)[C@H](Cc1ccc(O)cc1)NC(=O)[C@H](CO)NC(=O)[C@H](CO)NC(=O)[C@@H](NC(=O)[C@H](CC(=O)O)NC(=O)[C@H](CO)NC(=O)[C@@H](NC(=O)[C@H](Cc1ccccc1)NC(=O)[C@@H](NC(=O)CNC(=O)[C@H](CCC(=O)O)NC(=O)C(C)(C)NC(=O)[C@@H](N)Cc1c[nH]cn1)[C@@H](C)O)[C@@H](C)O)C(C)C)C(=O)N[C@@H](CCC(=O)O)C(=O)N[C@@H](Cc1ccccc1)C(=O)N[C@H](C(=O)N[C@@H](C)C(=O)N[C@@H](Cc1c[nH]c2ccccc12)C(=O)N[C@@H](CC(C)C)C(=O)N[C@H](C(=O)N[C@@H](CCCNC(=N)N)C(=O)NCC(=O)N[C@@H](CCCNC(=N)N)C(=O)NCC(=O)O)C(C)C)[C@@H](C)CC (stereo partly drawn) [Compound 5],Tmax,[1],24 h
same,half-life,[1],50.4 h
same,AUC(0-inf),[2],6.34 µM·h
same,Cmax,[2],31.4 ± 10.4 nM
same,Tmax,[2],31.2 h
same,half-life,[2],106 h
